In experiment [1] the target is T1, CB1 (Homo sapiens, UniProt P21554).
T1 construct: expressed in transfected cells; host or cells: CHO-K1 (membranes)
The experiment is described as follows: CB1 activated Gαq16-coupled intracellular calcium mobilization assay in CHO-K1 cells (apparent affinity Ke). Type of experiment: cell-based. Conditions: Table 2. On the technique in general: A change in cytosolic calcium serves as a functional read-out for many receptors and channels.

The chains behind the UniProt entries cited, without tags or fusion partners.
UniProt P21554, whole entry: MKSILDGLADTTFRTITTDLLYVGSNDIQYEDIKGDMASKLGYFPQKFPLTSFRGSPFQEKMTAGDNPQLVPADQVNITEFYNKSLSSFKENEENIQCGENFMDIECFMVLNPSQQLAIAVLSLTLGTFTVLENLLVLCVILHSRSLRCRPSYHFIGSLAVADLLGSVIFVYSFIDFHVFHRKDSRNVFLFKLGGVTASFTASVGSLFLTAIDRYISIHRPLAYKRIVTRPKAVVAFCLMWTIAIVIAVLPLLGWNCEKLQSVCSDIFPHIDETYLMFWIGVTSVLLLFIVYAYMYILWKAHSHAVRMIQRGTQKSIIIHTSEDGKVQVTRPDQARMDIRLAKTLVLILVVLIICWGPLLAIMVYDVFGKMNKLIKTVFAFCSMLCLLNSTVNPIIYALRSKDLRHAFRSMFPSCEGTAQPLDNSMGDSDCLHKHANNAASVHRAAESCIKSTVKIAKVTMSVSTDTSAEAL

Experiment [2] concerns the target T1, CB1. The experiment is described as follows: Displacement of [3H]CP55940 in membranes of CHO-K1 cells over-expressing CB1. It is filed as binding. As to conditions: Table 3; radioligand [3H]CP55940. On the technique in general: Loss of bound radioactivity is the signal in a displacement assay; it reports binding, not function.
In experiment [3] the target is T1, CB1. The experiment is described as follows: Radioligand displacement of [3H]SR141716 at CB1. It is filed as binding. As to conditions: Table 3; radioligand [3H]SR141716.

As to `Cc1c(C(=O)NCC2CCC(CNS(C)(=O)=O)CC2)nn(-c2ccc(Cl)cc2Cl)c1-c1ccc(Cl)cc1` (mixture of isomers) [drawing 37, 5-(4-chlorophenyl)-1-(2,4-dichlorophenyl)-N-{[4-(methanesulfonamidomethyl)cyclohexyl]methyl}-4-methyl-1H-pyrazole-3-carboxamide], the Kb in experiment [1] was determined as 113 nM. As for `Cc1c(C(=O)NCC2CCC(CNS(N)(=O)=O)CC2)nn(-c2ccc(Cl)cc2Cl)c1-c1ccc(Cl)cc1` (mixture of isomers) [drawing 38, 5-(4-chlorophenyl)-1-(2,4-dichlorophenyl)-4-methyl-N-({4-[(sulfamoylamino)methyl]cyclohexyl}methyl)-1H-pyrazole-3-carboxamide], in experiment [1], the Kb turned out to be 106 nM. Take `Cc1c(C(=O)NCC2CCC(CNS(N)(=O)=O)CC2)nn(-c2ccc(Cl)cc2Cl)c1-c1ccc(Cl)cc1` (mixture of isomers) [drawing 56]: the Ki in experiment [2] is 0.107 µM; in experiment [3], 0.015 µM. On to `Cc1c(C(=O)NCCCCCCCNS(C)(=O)=O)nn(-c2ccc(Cl)cc2Cl)c1-c1ccc(Cl)cc1` [5-(4-chlorophenyl)-1-(2,4-dichlorophenyl)-N-(7-methanesulfonamidoheptyl)-4-methyl-1H-pyrazole-3-carboxamide], for which the Kb in experiment [1] came to 207 nM.

Usually Ki stands for the equilibrium dissociation constant of an inhibitor or competing ligand from its target. A lower Ki goes with higher affinity.

For the origin of these results see patent US9133128B2, “Pyrazole derivatives as cannabinoid receptor 1 antagonists” (Research Triangle Institute, priority 2011, dated 2015).
